Biological target: EPHA2 (Homo sapiens, UniProt P29317)
Experiment: EPHA2 kinase assay, IMAP fluorescence polarization
Type: biochemical
Details: read-out: EPHA2-AVERAGE Ki, 50 or 100 μM ATP

Amino acid sequences for entries named in this document (tags omitted). Residues count along the entry.
UniProt P29317, 24-976 limits assumed: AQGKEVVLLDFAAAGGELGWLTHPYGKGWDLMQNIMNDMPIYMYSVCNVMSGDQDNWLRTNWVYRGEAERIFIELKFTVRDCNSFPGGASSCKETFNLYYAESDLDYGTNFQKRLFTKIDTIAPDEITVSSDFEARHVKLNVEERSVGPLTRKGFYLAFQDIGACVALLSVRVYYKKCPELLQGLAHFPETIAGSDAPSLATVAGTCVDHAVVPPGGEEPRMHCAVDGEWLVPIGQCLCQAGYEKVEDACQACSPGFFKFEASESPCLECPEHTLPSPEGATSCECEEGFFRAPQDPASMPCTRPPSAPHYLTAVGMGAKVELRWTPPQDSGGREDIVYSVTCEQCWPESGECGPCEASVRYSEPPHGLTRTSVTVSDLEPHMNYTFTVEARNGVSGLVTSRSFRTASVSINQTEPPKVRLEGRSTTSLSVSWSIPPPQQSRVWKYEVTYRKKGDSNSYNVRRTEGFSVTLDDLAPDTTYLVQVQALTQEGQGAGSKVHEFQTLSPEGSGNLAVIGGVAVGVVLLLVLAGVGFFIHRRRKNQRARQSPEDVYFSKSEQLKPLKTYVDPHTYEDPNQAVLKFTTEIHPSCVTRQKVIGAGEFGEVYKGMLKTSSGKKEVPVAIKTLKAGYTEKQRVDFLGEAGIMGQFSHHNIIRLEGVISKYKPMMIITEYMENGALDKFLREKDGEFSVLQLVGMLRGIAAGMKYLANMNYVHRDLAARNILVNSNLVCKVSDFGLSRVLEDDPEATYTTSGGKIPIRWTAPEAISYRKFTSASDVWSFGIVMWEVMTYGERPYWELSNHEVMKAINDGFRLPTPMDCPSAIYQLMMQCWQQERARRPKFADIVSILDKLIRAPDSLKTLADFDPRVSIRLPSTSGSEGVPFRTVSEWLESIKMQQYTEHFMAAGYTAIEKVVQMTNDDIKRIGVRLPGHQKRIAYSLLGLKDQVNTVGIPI

Compound	Ki
Cc1cccc(F)c1N1Cc2cnc(N)cc2N(C2CCNCC2)C1=O [Example 1, 7-Amino-3-(2-fluoro-6-methyl-phenyl)-1-(4-piperidyl)-4H-pyrido[4,3-d]pyrimidin-2-one]	188 nM
Cc1cccc(F)c1N1Cc2cnc(N)cc2N(C2CCN(C)CC2)C1=O [Example 3, 7-Amino-3-(2-fluoro-6-methyl-phenyl)-1-(1-methyl-4-piperidyl)-4H-pyrido[4,3-d]pyrimidin-2-one]	206 nM
Cc1cccc(Cl)c1N1Cc2cnc(N)cc2N(C2CCNCC2)C1=O [Example 6, 7-amino-3-(2-chloro-6-methyl-phenyl)-1-(4-piperidyl)-4H-pyrido[4,3-d]pyrimidin-2-one]	59 nM
Cc1cccc(Cl)c1N1Cc2cnc(N)cc2N(C2CCN(C)CC2)C1=O [Example 7, 7-amino-3-(2-chloro-6-methyl-phenyl)-1-(1-methyl-4-piperidyl)-4H-pyrido[4,3-d]pyrimidin-2-one]	70.2 nM
Cc1cccc(F)c1N1Cc2cnc(N)nc2N(C2CCNCC2)C1=O [Example 11, 7-Amino-3-(2-fluoro-6-methyl-phenyl)-1-(4-piperidyl)-4H-pyrimido[4,5-d]pyrimidin-2-one]	105 nM
Cc1cccc(Cl)c1N1Cc2cnc(N)nc2N(C2CCNCC2)C1=O [Example 15, 7-Amino-3-(2-chloro-6-methyl-phenyl)-1-(4-piperidyl)-4H-pyrimido[4,5-d]pyrimidin-2-one]	30.7 nM
Cc1cccc(F)c1N1Cc2cncnc2N(C2CCNCC2)C1=O [Example 16, 3-(2-fluoro-6-methyl-phenyl)-1-(4-piperidyl)-4H-pyrimido[4,5-d]pyrimidin-2-one]	4790 nM
Cc1cccc(Cl)c1N1Cc2cncnc2N(C2CCNCC2)C1=O [Example 17, 3-(2-chloro-6-methyl-phenyl)-1-(4-piperidyl)-4H-pyrimido[4,5-d]pyrimidin-2-one]	801 nM
Cc1cccc(F)c1N1Cc2cnccc2N(C2CCNCC2)C1=O [Example 18, 3-(2-Fluoro-6-methyl-phenyl)-1-(4-piperidyl)-4H-pyrido[4,3-d]pyrimidin-2-one]	353 nM
Cc1cccc(F)c1N1Cc2cnc(N)nc2N(C2CCN(C)CC2)C1=O [Example 19, 7-Amino-3-(2-fluoro-6-methyl-phenyl)-1-(1-methyl-4-piperidyl)-4H-pyrimido[4,5-d]pyrimidin-2-one]	93 nM
CCN1CCC(N2C(=O)N(c3c(C)cccc3F)Cc3cnc(N)nc32)CC1 [Example 20, 7-amino-1-(1-ethyl-4-piperidyl)-3-(2-fluoro-6-methyl-phenyl)-4H-pyrimido[4,5-d]pyrimidin-2-one]	153 nM
Cc1cccc(Cl)c1N1Cc2cnc(N)nc2N(C2CCN(C)CC2)C1=O [Example 22, 7-amino-3-(2-chloro-6-methyl-phenyl)-1-(1-methyl-4-piperidyl)-4H-pyrimido[4,5-d]pyrimidin-2-one]	57.6 nM
Cc1cccc(F)c1N1Cc2cnccc2N(C2CCN(C)CC2)C1=O [Example 24, 3-(2-fluoro-6-methyl-phenyl)-1-(1-methyl-4-piperidyl)-4H-pyrido[4,3-d]pyrimidin-2-one]	460 nM
CCN1CCC(N2C(=O)N(c3c(C)cccc3F)Cc3cnccc32)CC1 [Example 25, 1-(1-ethyl-4-piperidyl)-3-(2-fluoro-6-methyl-phenyl)-4H-pyrido[4,3-d]pyrimidin-2-one]	840 nM
Cc1cccc(F)c1N1Cc2cncnc2N(C2CCN(C)CC2)C1=O [Example 26, 3-(2-fluoro-6-methyl-phenyl)-1-(1-methyl-4-piperidyl)-4H-pyrimido[4,5-d]pyrimidin-2-one]	3110 nM
CCN1CCC(N2C(=O)N(c3c(C)cccc3F)Cc3cncnc32)CC1 [Example 27, 1-(1-ethyl-4-piperidyl)-3-(2-fluoro-6-methyl-phenyl)-4H-pyrimido[4,5-d]pyrimidin-2-one]	6630 nM
Cc1cccc(Cl)c1N1Cc2cncnc2N(C2CCN(C)CC2)C1=O [Example 28, 3-(2-chloro-6-methyl-phenyl)-1-(1-methyl-4-piperidyl)-4H-pyrimido[4,5-d]pyrimidin-2-one]	1720 nM
CCN1CCC(N2C(=O)N(c3c(C)cccc3Cl)Cc3cncnc32)CC1 [Example 29, 3-(2-chloro-6-methyl-phenyl)-1-(1-ethyl-4-piperidyl)-4H-pyrimido[4,5-d]pyrimidin-2-one]	1730 nM
Cc1cccc(Cl)c1N1Cc2cnccc2N(C2CCN(C)CC2)C1=O [Example 32, 3-(2-chloro-6-methyl-phenyl)-1-(1-methyl-4-piperidyl)-4H-pyrido[4,3-d]pyrimidin-2-one]	88.8 nM
CCN1CCC(N2C(=O)N(c3c(C)cccc3Cl)Cc3cnccc32)CC1 [Example 33, 3-(2-chloro-6-methyl-phenyl)-1-(1-ethyl-4-piperidyl)-4H-pyrido[4,3-d]pyrimidin-2-one]	163 nM
Cc1cccc(Cl)c1N1Cc2cnccc2N(C2CCNCC2)C1=O [Example 66, 3-(2-chloro-6-methyl-phenyl)-1-(4-piperidyl)-4H-pyrido[4,3-d]pyrimidin-2-one]	56.9 nM

From patent US12509457B2, “Bicyclic nitrogen containing heterocycles as inhibitors of salt-induced kinase SIK2” (priority 2019, dated 2025)
